From patent publication US5494895A, “Scorpion peptide margatoxin with immunosuppressant activity” (Merck & Co., Inc., priority 1993, dated 1996)

Amino acid sequences for entries named in this document (tags omitted).
UniProt P15384, whole entry: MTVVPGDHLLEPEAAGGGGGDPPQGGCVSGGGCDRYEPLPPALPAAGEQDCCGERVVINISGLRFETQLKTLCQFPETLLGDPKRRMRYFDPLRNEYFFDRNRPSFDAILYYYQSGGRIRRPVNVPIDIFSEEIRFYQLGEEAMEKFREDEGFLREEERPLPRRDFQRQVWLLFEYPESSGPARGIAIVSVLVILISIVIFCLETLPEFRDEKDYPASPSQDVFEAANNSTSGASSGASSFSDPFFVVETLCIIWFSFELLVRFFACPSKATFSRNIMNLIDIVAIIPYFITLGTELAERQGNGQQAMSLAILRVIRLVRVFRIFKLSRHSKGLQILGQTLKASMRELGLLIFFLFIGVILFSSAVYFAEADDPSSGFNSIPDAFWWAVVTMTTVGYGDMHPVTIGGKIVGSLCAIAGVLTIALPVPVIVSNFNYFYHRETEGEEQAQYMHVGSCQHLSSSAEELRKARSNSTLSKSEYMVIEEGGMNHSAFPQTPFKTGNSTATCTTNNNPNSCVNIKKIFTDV

Biological target: T1, Kv 1.3 (Rattus norvegicus, UniProt P15384)
T1 construct: from tissue; host or cells: rat brain synaptic plasma membrane vesicles
Assay: [125I]ChTX binding to rat brain synaptic plasma membrane vesicles
Method: The potency of MgTX as an inhibitor of [^125 I]ChTX binding to Kv 1.3 was evaluated. The binding of [^125 I]ChTX to either rat brain synaptic plasma membrane vesicles (Kv 1.3 channel; Vazquez et al., J. Biol. Chem. 265, 15564, 1990) or bovine aortic smooth muscle sarcolemmal membranes (Maxi-K channel; Vazquez et al., J. Biol. Chem. 264, 20402, 1989) was determined as described. Briefly, membrane vesicles were incubated with [^125 I]ChTX in the presence or absence of other added agents, until equilibrium was achieved. Separation of bound from free ligand was accomplished by filtration through GF/C glass fiber filters (WHATMAN) that had been presoaked in 0.5% polyethyleneimine. Nonspecific binding was determined in the presence of 10 nM unlabeled ChTX. Data from saturation experiments were analyzed in a Scatchard representation to determine Kd and Bmax values. Triplicate samples were obtained for each experimental point and the data were averaged. The standard deviation of the mean was typically less than 2%. […] As an indication of selectivity, MgTX had no effect on [^125 I]ChTX binding to the Maxi-K channel in smooth muscle membranes at concentrations up to 10 nM.

CSCC[C@@H]1NC(=O)[C@@H]2CSSC[C@H](NC(=O)[C@H](CO)NC(=O)[C@@H](NC(=O)[C@H](CC(N)=O)NC(=O)[C@@H](NC(=O)[C@H](Cc3ccccc3)NC(=O)[C@@H]3CCC(=O)N3)[C@@H](C)O)C(C)C)C(=O)N[C@@H]([C@@H](C)O)C(=O)N[C@@H]([C@@H](C)O)C(=O)N[C@@H](CO)C(=O)N[C@@H](CCCCN)C(=O)N[C@@H](CCC(=O)O)C(=O)N[C@H]3CSSC[C@H](NC(=O)[C@H](CCCCN)NC(=O)[C@H](CCCCN)NC(=O)[C@H](CC(N)=O)NC1=O)C(=O)N[C@@H](CCCNC(=N)N)C(=O)N[C@H](C(=O)N[C@@H](Cc1ccc(O)c(I)c1)C(=O)N[C@@H](CO)C(=O)O)CSSC[C@H](NC(=O)[C@H](C(C)C)NC(=O)[C@H](CO)NC(=O)[C@H](Cc1c[nH]c4ccccc14)NC3=O)C(=O)N[C@@H](CCC(N)=O)C(=O)N[C@@H](CCCNC(=N)N)C(=O)N[C@@H](CC(C)C)C(=O)N[C@@H](Cc1c[nH]cn1)C(=O)N[C@@H](CC(N)=O)C(=O)N[C@@H]([C@@H](C)O)C(=O)N[C@@H](CO)C(=O)N[C@@H](CCCNC(=N)N)C(=O)NCC(=O)N[C@@H](CCCCN)C(=O)N2 [[^125 I]ChTX, reference compound]
maximum density of [125I]ChTX sites (control conditions, saturation binding): 0.43 pmol/mg protein | receptor density of [125I]ChTX sites (in the presence of 25 pM MgTX): 0.34 pmol/mg protein
